From ChEMBL document CHEMBL1156239, “Synthesis, anticonvulsant and antimicrobial activities of some new 2-acetylnaphthalene derivatives” (Bioorg Med Chem, 2010)

Test system: Rattus norvegicus
Experiment: Neurotoxicity in ip dosed Sprague-Dawley rat after 0.5 hrs by rotarod test
Format: toxicity, organism-based
Settings: in vivo

CCCC(CCC)C(=O)O [VALPROIC ACID]
ED50: 784 mg/kg
